The source of these data is US10696677B2 (Research Triangle Institute, priority 2016, dated 2020).

By UniProt entry, the sequences of proteins in these tests, tags left out.
UniProt P21554, whole entry: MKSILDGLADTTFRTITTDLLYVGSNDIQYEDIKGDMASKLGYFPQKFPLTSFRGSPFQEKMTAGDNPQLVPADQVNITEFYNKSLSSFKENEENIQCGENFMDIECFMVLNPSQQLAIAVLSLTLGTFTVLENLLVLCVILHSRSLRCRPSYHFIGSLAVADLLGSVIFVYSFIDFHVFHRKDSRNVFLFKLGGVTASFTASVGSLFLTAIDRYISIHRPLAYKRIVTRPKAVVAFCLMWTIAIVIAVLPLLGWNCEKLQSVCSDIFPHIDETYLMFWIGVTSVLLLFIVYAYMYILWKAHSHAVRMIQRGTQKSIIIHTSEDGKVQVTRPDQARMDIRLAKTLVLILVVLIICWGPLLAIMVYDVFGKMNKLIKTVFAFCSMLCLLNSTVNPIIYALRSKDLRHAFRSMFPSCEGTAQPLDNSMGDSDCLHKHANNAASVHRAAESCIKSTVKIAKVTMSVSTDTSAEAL

One data set addresses hCB1 (Homo sapiens, UniProt P21554). The data set can be described thus: radioligand displacement binding at CB1 (membranes of CHO-K1 cells over-expressing receptor). To be noted: CB1 versus CB2. In general terms: Loss of bound radioactivity is the signal in a displacement assay; it reports binding, not function.
A further data set deals with MDCK. The data set can be described thus: MDCK BBB Assay. It is filed as in vitro ADME. To be noted: MDCK cells.

As for `O=C(Nc1ccc(F)c(F)c1)N1CCN(c2ncnc3c2nc(-c2ccccc2Cl)n3-c2ccc(Cl)cc2)CC1` [Compound 42, 4-[8-(2-Chlorophenyl)-9-(4-chlorophenyl)-9H-purin-6-yl]-N-(3,4-difluorophenyl)piperazine-1-carboxamide], the “CB2 Ki/CB1 Ki selectivity ratio” value on hCB1 stood at 840. For the same compound, in the data set on MDCK, the “MDCK BBB Assay (Basolateral/Apical Peak Area Ratio) Mean” value came out at 0.0001.
In the case of `O=C(Nc1ccc(F)cc1)N1CCN(c2ncnc3c2nc(-c2ccccc2Cl)n3-c2ccc(Cl)cc2)CC1` [Compound 43, 4-[8-(2-Chlorophenyl)-9-(4-chlorophenyl)-9H-purin-6-yl]-N-(4-fluorophenyl)piperazine-1-carboxamide], on hCB1, the “CB2 Ki/CB1 Ki selectivity ratio” value is 110.
For `O=C(Nc1ccccc1F)N1CCN(c2ncnc3c2nc(-c2ccccc2Cl)n3-c2ccc(Cl)cc2)CC1` [Compound 56, 4-[8-(2-Chlorophenyl)-9-(4-chlorophenyl)-9H-purin-6-yl]-N-(2-fluorophenyl)piperazine-1-carboxamide], the “CB2 Ki/CB1 Ki selectivity ratio” value on hCB1 was 220.
Still for that read-out and setting: with `CC(C)S(=O)(=O)N1CCN(c2ncnc3c2nc(-c2ccccc2Cl)n3-c2ccc(Cl)cc2)CC1` [Compound 80, 8-(2-Chlorophenyl)-9-(4-chlorophenyl)-6-{4-[(1-methylethyl)sulfonyl]piperazin-1-yl}-9H-purine] the figure was 699.
`CC(C)CS(=O)(=O)N1CCN(c2ncnc3c2nc(-c2ccccc2Cl)n3-c2ccc(Cl)cc2)CC1` [Compound 82, 8-(2-Chlorophenyl)-9-(4-chlorophenyl)-6-{4-[(2-methylpropyl)sulfonyl]piperazin-1-yl}-9H-purine]: the “CB2 Ki/CB1 Ki selectivity ratio” value on hCB1 was found to be 1407. Further, the “MDCK BBB Assay (Basolateral/Apical Peak Area Ratio) Mean” value with MDCK came out at 0.000.
As for `CS(=O)(=O)N1CCN(c2ncnc3c2nc(-c2ccccc2Cl)n3-c2ccc(Cl)cc2)CC1` [Compound 86, 8-(2-Chlorophenyl)-9-(4-chlorophenyl)-6-[4-(methylsulfonyl)piperazin-1-yl]-9H-purine], the “CB2 Ki/CB1 Ki selectivity ratio” value at hCB1 turned out to be 68. The “MDCK BBB Assay (Basolateral/Apical Peak Area Ratio) Mean” value with MDCK worked out at 0.143.
As to `O=C(NC1CCCC1)N1CCN(c2ncnc3c2nc(-c2ccccc2Cl)n3-c2ccc(Cl)cc2)CC1` [Compound 117, 4-[8-(2-Chlorophenyl)-9-(4-chlorophenyl)-9H-purin-6-yl]-N-cyclopentylpiperazine-1-carboxamide], the “CB2 Ki/CB1 Ki selectivity ratio” value on hCB1 is given as 150. For the same compound, the “MDCK BBB Assay (Basolateral/Apical Peak Area Ratio) Mean” value in the data set with MDCK is 0.03.
In the case of `O=C(NC1(C(F)(F)F)CCCC1)N1CCN(c2ncnc3c2nc(-c2ccccc2Cl)n3-c2ccc(Cl)cc2)CC1` [Compound 118, 4-[8-(2-Chlorophenyl)-9-(4-chlorophenyl)-9H-purin-6-yl]-N-[1-(trifluoromethyl)cyclopentyl]piperazine-1-carboxamide], the “CB2 Ki/CB1 Ki selectivity ratio” value at hCB1 is 54.
For the compound `O=C(NC1CCCCC1)N1CCN(c2ncnc3c2nc(-c2ccccc2Cl)n3-c2ccc(Cl)cc2)CC1` [Compound 119, 4-[8-(2-chlorophenyl)-9-(4-chlorophenyl)-9H-purin-6-yl]-N-cyclohexylpiperazine-1-carboxamide], the “CB2 Ki/CB1 Ki selectivity ratio” value on hCB1 came to 440.
Regarding `O=C(NCC1CCCCC1)N1CCN(c2ncnc3c2nc(-c2ccccc2Cl)n3-c2ccc(Cl)cc2)CC1` [Compound 120, 4-[8-(2-chlorophenyl)-9-(4-chlorophenyl)-9H-purin-6-yl]-N-(cyclohexylmethyl)piperazine-1-carboxamide], on hCB1, the “CB2 Ki/CB1 Ki selectivity ratio” value is listed as 17.
As to `O=C(Nc1ccccc1)N1CCN(c2ncnc3c2nc(-c2ccccc2Cl)n3-c2ccc(Cl)cc2)CC1` [Compound 121, 4-[8-(2-chlorophenyl)-9-(4-chlorophenyl)-9H-purin-6-yl]-N-phenylpiperazine-1-carboxamide], the “CB2 Ki/CB1 Ki selectivity ratio” value at hCB1 was found to be 400.
For the compound `O=C(Nc1ccccn1)N1CCN(c2ncnc3c2nc(-c2ccccc2Cl)n3-c2ccc(Cl)cc2)CC1` [Compound 122, 4-[8-(2-Chlorophenyl)-9-(4-chlorophenyl)-9H-purin-6-yl]-N-(pyridin-2-yl)piperazine-1-carboxamide], the “CB2 Ki/CB1 Ki selectivity ratio” value at hCB1 is 1200. The “MDCK BBB Assay (Basolateral/Apical Peak Area Ratio) Mean” value with MDCK worked out at 0.012.
